The values that follow come from ChEMBL document CHEMBL3886396, “Tricyclic amino containing compounds for treatment or prevention of symptoms associated with endocrine dysfunction” (2015).

Sequences of proteins named here, by UniProt entry; tags and fusion partners are left off.
UniProt O08565, whole entry: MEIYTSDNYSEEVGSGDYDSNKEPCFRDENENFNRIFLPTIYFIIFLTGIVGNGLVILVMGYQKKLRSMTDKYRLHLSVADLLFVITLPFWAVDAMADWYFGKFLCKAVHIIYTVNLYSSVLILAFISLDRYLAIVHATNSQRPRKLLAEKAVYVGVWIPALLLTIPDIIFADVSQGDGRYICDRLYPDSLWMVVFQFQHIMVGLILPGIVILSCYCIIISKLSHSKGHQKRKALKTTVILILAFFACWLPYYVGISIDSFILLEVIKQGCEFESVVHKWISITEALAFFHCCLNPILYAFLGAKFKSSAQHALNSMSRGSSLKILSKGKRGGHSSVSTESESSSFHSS

This experiment concerns the target C-X-C chemokine receptor type 4 (Rattus norvegicus, UniProt O08565). The experiment in a line: Competitive Binding Assay: A synthetic 14-mer peptide, TN14003, was previously reported to block both SDF-1/CXCR4 mediated invasion in vitro and metastasis in vivo with a high specificity by binding competitively with its ligand SDF-1. Aa competitive binding assay using biotin-labeled TN14003 and streptavidin-conjugated rhodamine was developed to determine the binding efficiency of new chemical entities to the SDF-1 binding domain of CXCR4. Cells incubated with high affinity compounds show only blue nuclear staining, whereas compounds with low affinity result in staining CXCR4 (red; rhodamine) as well as the nuclei (blue; cytox blue). In kind it is organism-based.

As usually defined, the IC50 is the midpoint of a concentration-inhibition curve. Read a low IC50 as inhibition by little substance. Take `Fc1ccccc1NCc1ccc(CNc2ncccn2)cc1`: the IC50 result is “in the range around 0.1 µM”.
Take `Fc1nc(F)nc(NCc2ccc(CNc3nc(F)nc(F)n3)cc2)n1`: the IC50 entry was “in the range around 0.1 µM”.
